In PMC11157481, “Mechanochemical Synthesis of New Praziquantel Cocrystals: Solid-State Characterization and Solubility” (Crystal Growth & Design, 2024):

Experiment: Equilibrium solubility by the shake-flask method with HPLC-UV analysis
Type: physicochemical
Conditions: for Increase in solubility in SIF compared to PZQ alone: 24 h, relative to pure PZQ; for [PZQ] in SCF attained in 24 hours: simulated colonic fluid pH 7.8, 37 °C; for [PZQ] in SCF attained in 24 hours / [PZQ] in SGF attained in 24 hours / [PZQ] in SIF attained in 24 hours / [PZQ] in H2O attained in 24 hours: shake-flask, n = 3; for [PZQ] in SGF attained in 24 hours: simulated gastric fluid pH 1.5, 37 °C; for [PZQ] in SIF attained in 24 hours: simulated intestinal fluid pH 7.4, 37 °C; for [PZQ] in H2O attained in 24 hours: ultrapure water, 37 °C
Method: The stock solution of PZQ (2 mg/mL) was prepared by dissolving the pure compound in MeCN. Corresponding aliquots were diluted with the same solvent for the preparation of working PZQ solutions. Samples of 10 μL were injected into the chromatographic system. […] Ultrapure water was used as the reference dissolution medium. The solubility of the obtained PZQ cocrystals was determined by the shake-flask method. Briefly, excess PZQ and PZQ cocrystals (the corresponding amount of 6 mg of PZQ) were added to 2 mL vials containing 2 mL of the dissolution medium. The slurry samples were placed in an orbital shaker to achieve uniform mixing at 37 °C for 24 h. At different time intervals (10, 20, 30, 40, 50, 60, and 90 min), an aliquot of 200 μL of each sample was collected after centrifugation, filtered, and analyzed concerning the PZQ content by HPLC-UV analysis.
The solubilities of each cocrystal and PZQ were tested in ultrapure water and the three dissolution media, simulating the biorelevant fluids present along the entire gastrointestinal tract, namely, SGF (simulated gastric fluid), SIF (simulated intestinal fluid), and SCF (simulated colonic fluid).

Substance | Increase in solubility in SIF compared to PZQ alone [fold] | [PZQ] in SCF attained in 24 hours [µg/mL] | [PZQ] in SGF attained in 24 hours [µg/mL] | [PZQ] in SIF attained in 24 hours [µg/mL] | [PZQ] in H2O attained in 24 hours [µg/mL]
PZQ – BENZENE-1,2,4,5-TETRACARBOXYLIC ACID (BTC) [Co-Crystal 10] | 1.65 | 260.75 | 217.19 | 317.60 | 354.90
PZQ – SUBERIC ACID (SUB) [Co-Crystal 11] | 1.18 | 250.99 | 278.27 | 226.99 | 271.99
